Patent US8796324B2, “Substituted 2-acetamido-5-aryl-1,2,4-triazolones and use thereof” (Bayer Intellectual Property GmbH, priority 2009, dated 2014)

Chains of the proteins cited; added tags and fusions are not shown.
UniProt P37288, whole entry: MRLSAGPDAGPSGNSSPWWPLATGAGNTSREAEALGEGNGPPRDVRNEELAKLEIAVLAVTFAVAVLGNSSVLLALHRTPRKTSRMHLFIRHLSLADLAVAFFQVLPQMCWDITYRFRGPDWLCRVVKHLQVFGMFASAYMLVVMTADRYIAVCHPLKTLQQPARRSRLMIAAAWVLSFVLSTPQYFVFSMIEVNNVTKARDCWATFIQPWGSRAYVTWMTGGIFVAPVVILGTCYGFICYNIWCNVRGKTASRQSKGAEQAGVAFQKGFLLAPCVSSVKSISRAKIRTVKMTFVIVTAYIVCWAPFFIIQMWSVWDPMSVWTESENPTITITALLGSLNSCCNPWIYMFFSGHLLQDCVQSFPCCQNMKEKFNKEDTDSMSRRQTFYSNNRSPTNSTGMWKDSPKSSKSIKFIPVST
UniProt P30518, whole entry: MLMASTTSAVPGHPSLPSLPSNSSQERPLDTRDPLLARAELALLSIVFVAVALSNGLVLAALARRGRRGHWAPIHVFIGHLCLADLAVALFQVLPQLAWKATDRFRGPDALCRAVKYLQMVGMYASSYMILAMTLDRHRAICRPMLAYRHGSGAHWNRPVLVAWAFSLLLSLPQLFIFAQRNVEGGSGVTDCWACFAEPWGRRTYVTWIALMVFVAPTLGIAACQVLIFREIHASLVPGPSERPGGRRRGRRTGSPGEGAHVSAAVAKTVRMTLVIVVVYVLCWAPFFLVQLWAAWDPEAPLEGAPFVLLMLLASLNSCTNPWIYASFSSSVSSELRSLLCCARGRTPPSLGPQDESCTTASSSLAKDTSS

Legend:
human V1a receptor = human V1a receptor (Homo sapiens, UniProt P37288); test: Cellular in vitro assay for determining the vasopressin receptor activity (aequorin luminescence); conditions: read-out: IC50 hV1a; CHO cell line transfected with the human V1a receptor; agonist [Arg8]-vasopressin
Source text: (§1) B-1. Cellular In Vitro Assay for Determining the Vasopressin Receptor Activity
(§2) The identification of agonists and antagonists of the V1a and V2 vasopressin receptors from humans and rats and also the quantification of the activity of the substances described here took place using recombinant cell lines. These cells derive originally from a hamster ovary epithelial cell (Chinese Hamster Ovary, CHO K1, ATCC: American Type Culture Collection, Manassas, Va. 20108, USA). […] The resulting vasopressin receptor test cells react to stimulation of the recombinantly expressed vasopressin receptors by intracellular release of calcium ions, which can be quantified by the resulting aequorin luminescence using a suitable luminometer (Milligan G., Marshall F., Rees S., Trends in Pharmaco. Sci. 17 (1996) 235-237).
(§3) On the day before the assay, the cells are plated out in culture medium (DMEM, 10% FCS, 2 mM glutamine, 10 mM HEPES) in 384-well microtiter plates and kept in a cell incubator (96% humidity, 5% v/v carbon dioxide, 37° C.). […] The test substances in various concentrations are placed for 10 to 20 minutes in the wells of the microtiter plate before the agonist [Arg8]-vasopressin is added, and the resulting light signal is measured immediately in the luminometer. The IC50 values are calculated using the GraphPad PRISM computer program (Version 3.02). […]

human V2 receptor = human V2 receptor (Homo sapiens, UniProt P30518); test: as above; conditions: read-out: IC50 hV2; CHO cell line transfected with the human V2 receptor (and Gα16); agonist [Arg8]-vasopressin
Source text: as §1, §2, §3

What does the source list for `NC(=O)OCC(NC(=O)Cn1nc(-c2ccc(Cl)cc2)n(C[C@H](O)C(F)(F)F)c1=O)c1cccc(Cl)c1F` (some centres unmarked)?
IC50 (human V1a receptor): 3 nM; IC50 (human V2 receptor): 5.4 nM
